Reference: patent US5418162A, “Serotonin transporter CDNA” (Duke University, priority 1992, dated 1995)

Sequences of proteins named here, by UniProt entry; tags and fusion partners are left off.
UniProt P31652, whole entry: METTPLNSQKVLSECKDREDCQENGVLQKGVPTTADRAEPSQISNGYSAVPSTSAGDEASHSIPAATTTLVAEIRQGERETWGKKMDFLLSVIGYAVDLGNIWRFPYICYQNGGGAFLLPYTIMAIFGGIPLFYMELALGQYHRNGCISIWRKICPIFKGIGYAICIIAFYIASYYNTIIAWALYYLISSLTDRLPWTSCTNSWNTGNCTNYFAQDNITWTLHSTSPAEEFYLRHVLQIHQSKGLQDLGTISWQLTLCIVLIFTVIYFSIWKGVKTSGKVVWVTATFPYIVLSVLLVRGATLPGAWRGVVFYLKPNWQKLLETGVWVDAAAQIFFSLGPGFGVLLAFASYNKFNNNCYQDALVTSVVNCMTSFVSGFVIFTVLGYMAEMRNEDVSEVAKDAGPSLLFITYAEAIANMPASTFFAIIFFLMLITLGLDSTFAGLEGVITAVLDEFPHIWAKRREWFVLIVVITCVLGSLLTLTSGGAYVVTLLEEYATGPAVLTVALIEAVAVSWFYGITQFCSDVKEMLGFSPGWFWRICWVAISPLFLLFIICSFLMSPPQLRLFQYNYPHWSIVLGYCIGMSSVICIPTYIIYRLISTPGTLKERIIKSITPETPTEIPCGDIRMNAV

Biological target: rat 5HT transporter (rSERT) (Rattus norvegicus, UniProt P31652)
Assay: [3H]5HT transport assay in HeLa cells transfected with BS4E-10 cDNA (rSERT)
Assay type: cell-based

SMILES | Ki [nM] | potency for 5HT transport inhibition compared with inhibition of the cloned NA carrier (rSERT in transfected cells vs cloned NA transporter)
Fc1ccc(C(OCCN2CCN(CCCc3ccccc3)CC2)c2ccc(F)cc2)cc1 [GBR12909] | 3900 | –
CNCC(O)c1ccc(O)c(O)c1 (centres unmarked) [adrenaline] | > 10000 | –
CNCCC=C1c2ccccc2CCc2ccccc21 [nortriptyline] | 73.5 | –
Fc1ccc([C@@H]2CCNC[C@H]2COc2ccc3c(c2)OCO3)cc1 [paroxetine] | 0.39 | nearly three orders of magnitude more potent
